What was measured:
[1] = system: B44 supertype (B*1801, B*4001, B*4002, B*4402, B*4403, B*4501); experiment: B44 supertype cross-binding (degeneracy, alleles bound); set-up: species or system human; conditions: number of the six B44 supertype alleles bound
[2] = molecular target: B*1801 (Homo sapiens, UniProt P01889, A329T/A93T/A95T/C349S/D201E/D54G/D98Y/E176V/E187T/E204Q/E69T/K202T/Q94N/R155S/R180L/S121R/V306I/Y140S/Y195H/Y33H/Y91S); experiment: B44 supertype peptide binding, B*1801; conditions: CEA-derived B44 peptides; binding affinity, unit inferred
[3] = molecular target: B*4501 (Homo sapiens, UniProt P01889, A329T/A65T/A93T/A95T/C349S/D138N/D201E/D98Y/E176V/E187L/E204Q/E69K/H137Y/K202T/L119W/N87E/Q56L/Q94N/R155S/R180D/S121R/S35A/S48T/V127L/V306I/V36M/W191S/Y140L/Y33H/Y91S); experiment: B44 supertype peptide binding, B*4501; conditions: CEA-derived B44 peptides; binding affinity, unit inferred; read-out: B* 4501
[4] = molecular target: B*4402 (Homo sapiens, UniProt P01889, A223V/A65T/A93T/A95T/D201E/D98Y/E176V/E187L/E204Q/E69K/G107R/H137Y/K202T/L105A/L119I/N104T/N87E/Q56L/Q94N/R106L/R155S/R180D/S101N/S121R/S35A/S48T/T118I/V36M/W191S/Y140D/Y91S); experiment: B44 supertype peptide binding, B*4402; conditions: CEA-derived B44 peptides; binding affinity, unit inferred; read-out: B* 4402
[5] = molecular target: B*4001(B60) (Homo sapiens, UniProt P01889, A65T/A93T/A95T/D138N/D98Y/E176V/E69K/N87E/Q56L/Q94N/R180L/S121R/S35A/S48T/T167S/V36M/W171L/Y33H/Y91S); experiment: B44 supertype peptide binding, B*4001; conditions: CEA-derived B44 peptides; binding affinity, unit inferred; read-out: B* 4001
[6] = molecular target: B*4403 (Homo sapiens, UniProt P01889, A223V/A65T/A93T/A95T/D201E/D98Y/E176V/E187L/E204Q/E69K/G107R/H137Y/K202T/L105A/L119I/N104T/N87E/Q56L/Q94N/R106L/R155S/R180L/S101N/S121R/S35A/S48T/T118I/V36M/W191S/Y140D/Y91S); experiment: B44 supertype peptide binding, B*4403; conditions: CEA-derived B44 peptides; binding affinity, unit inferred; read-out: B* 4403
[7] = molecular target: B*4002 (B61) (Homo sapiens, UniProt P01889, A65T/A93T/A95T/D138N/D201E/D98Y/E176V/E204Q/E69K/K202T/N87E/Q56L/Q94N/R180L/S48T/Y33H/Y91S); experiment: B44 supertype peptide binding, B*4002; conditions: CEA-derived B44 peptides; binding affinity, unit inferred; read-out: B* 4002

Row | IC50 [4] [µM] | IC50 [5] [µM] | IC50 [6] [µM] | IC50 [7] [µM] | Compound | Degeneracy [1] | IC50 [2] [µM] | IC50 [3] [µM]
1 | – | – | – | – | CC(C)C[C@H](NC(=O)[C@H](CC(N)=O)NC(=O)[C@H](Cc1c[nH]cn1)NC(=O)[C@@H](NC(=O)[C@H](CC(C)C)NC(=O)[C@H](CC(C)C)NC(=O)[C@H](CC(C)C)NC(=O)[C@@H](NC(=O)[C@H](CCC(=O)O)NC(=O)[C@@H](N)CCCCN)C(C)C)C(C)C)C(=O)O [compound 376] | 4 | 0.893 | –
2 | – | – | – | – | CC[C@H](C)[C@H](NC(=O)[C@H](CCC(=O)O)NC(=O)[C@@H](N)CCCNC(=N)N)C(=O)N[C@H](C(=O)N[C@@H](Cc1ccc(O)cc1)C(=O)N1CCC[C@H]1C(=O)N[C@@H](CC(N)=O)C(=O)N[C@@H](C)C(=O)N[C@@H](CO)C(=O)N[C@@H](CC(C)C)C(=O)O)[C@@H](C)CC [compound 377] | 4 | 4.34 | 0.954
3 | 0.167 | 0.511 | – | 0.291 | CC[C@H](C)[C@H](NC(=O)[C@H](CCC(=O)O)NC(=O)[C@@H]1CCCN1)C(=O)N[C@@H](CCC(N)=O)C(=O)N[C@@H](CC(N)=O)C(=O)N[C@H](C(=O)N[C@H](C(=O)N[C@@H](Cc1ccc(O)cc1)C(=O)N[C@@H](CC(C)C)C(=O)N[C@@H](Cc1c[nH]c2ccccc12)C(=O)N[C@@H](Cc1c[nH]c2ccccc12)C(=O)N[C@H](C(=O)O)C(C)C)[C@@H](C)O)[C@@H](C)O [compound 390] | 3 | – | –
4 | 2.82 | > 10 | – | > 10 | CC(C)C[C@H](NC(=O)[C@H](Cc1ccc(O)cc1)NC(=O)[C@@H](NC(=O)[C@H](C)NC(=O)[C@H](CC(=O)O)NC(=O)[C@H](CCC(N)=O)NC(=O)[C@@H](NC(=O)[C@H](CCC(=O)O)NC(=O)[C@@H]1CCCN1)[C@@H](C)O)[C@@H](C)O)C(=O)N[C@@H](Cc1c[nH]c2ccccc12)C(=O)N[C@@H](Cc1c[nH]c2ccccc12)C(=O)O [compound 423] | 0 | 5.31 | 11.6
5 | 13.5 | 18.8 | 0.819 | 7.45 | CC(C)[C@H](NC(=O)[C@@H]1CCCN1C(=O)[C@H](CC(N)=O)NC(=O)[C@H](CCC(N)=O)NC(=O)[C@@H](NC(=O)[C@H](CCC(=O)O)NC(=O)[C@@H](N)CS)[C@@H](C)O)C(=O)O [compound 424] | 0 | – | > 10
6 | 13.7 | > 10 | 0.904 | > 10 | CC[C@H](C)[C@H](NC(=O)[C@H](Cc1ccccc1)NC(=O)[C@@H]1CCCN1C(=O)[C@H](CCCCN)NC(=O)[C@@H]1CCCN1C(=O)[C@@H]1CCCN1C(=O)[C@H](CCC(=O)O)NC(=O)[C@H](C)N)C(=O)O [compound 425] | 0 | – | > 10
7 | > 10 | 11.1 | 1.21 | > 10 | C[C@H](NC(=O)[C@H](CCC(=O)O)NC(=O)[C@@H]1CCCN1C(=O)[C@H](CCC(=O)O)NC(=O)[C@@H](N)CS)C(=O)N[C@@H](CCC(N)=O)C(=O)N[C@@H](CC(N)=O)C(=O)N[C@H](C(=O)N[C@H](C(=O)O)[C@@H](C)O)[C@@H](C)O [compound 428] | 0 | 15.6 | –
8 | > 10 | 3.09 | 1.84 | 9.28 | CC(C)C[C@H](NC(=O)[C@H](Cc1ccc(O)cc1)NC(=O)[C@@H](NC(=O)[C@@H](NC(=O)[C@H](CC(N)=O)NC(=O)[C@H](CCC(N)=O)NC(=O)[C@H](C)NC(=O)[C@H](CCC(=O)O)NC(=O)[C@@H]1CCCN1)[C@@H](C)O)[C@@H](C)O)C(=O)O [compound 429] | 0 | – | > 10

Row | Compound | IC50 [4] [µM] | IC50 [5] [µM] | IC50 [6] [µM] | IC50 [7] [µM] | Degeneracy [1] | IC50 [2] [µM] | IC50 [3] [µM]
9 | CC[C@H](C)[C@H](NC(=O)[C@@H](NC(=O)[C@H](CCC(N)=O)NC(=O)[C@H](CCCNC(=N)N)NC(=O)[C@H](CC(N)=O)NC(=O)CNC(=O)[C@H](CC(=O)O)NC(=O)[C@@H](NC(=O)[C@H](CCCNC(=N)N)NC(=O)[C@H](CCC(=O)O)NC(=O)CN)C(C)C)[C@@H](C)CC)C(=O)O [compound 382] | 0.871 | – | – | – | 3 | 0.764 | > 10
10 | C[C@H](NC(=O)[C@H](CC(=O)O)NC(=O)[C@H](CCC(N)=O)NC(=O)[C@@H](NC(=O)[C@H](CCC(=O)O)NC(=O)[C@@H]1CCCN1C(=O)[C@H](CCC(=O)O)NC(=O)[C@@H](N)CS)[C@@H](C)O)C(=O)N[C@H](C(=O)O)[C@@H](C)O [compound 384] | – | 3.65 | – | – | 3 | 4.01 | –
11 | CC(C)C[C@H](NC(=O)[C@H](CC(N)=O)NC(=O)[C@H](CCC(=O)O)NC(=O)CN)C(=O)N[C@@H](CC(N)=O)C(=O)N[C@@H](CC(C)C)C(=O)N[C@@H](CO)C(=O)N[C@@H](CS)C(=O)N[C@@H](Cc1c[nH]cn1)C(=O)N[C@@H](C)C(=O)O [compound 385] | 8.61 | – | – | – | 3 | 14.4 | 0.271
12 | CC(C)C[C@H](NC(=O)[C@H](CC(N)=O)NC(=O)[C@H](CCC(=O)O)NC(=O)CN)C(=O)N[C@@H](CC(N)=O)C(=O)N[C@@H](CC(C)C)C(=O)N[C@@H](CO)C(=O)N[C@@H](CS)C(=O)N[C@@H](Cc1c[nH]cn1)C(=O)N[C@@H](C)C(=O)N[C@@H](C)C(=O)O [compound 386] | 1.91 | 4.56 | – | – | 3 | 7.84 | –
13 | CC[C@H](C)[C@H](NC(=O)[C@H](CC(N)=O)NC(=O)[C@@H]1CCCN1C(=O)[C@@H](NC(=O)[C@H](Cc1ccccc1)NC(=O)[C@H](CC(C)C)NC(=O)[C@H](CCC(=O)O)NC(=O)[C@@H](N)CCC(N)=O)[C@@H](C)CC)C(=O)O [compound 387] | 1.34 | 5.82 | – | – | 3 | – | 1.32
14 | CC[C@H](C)[C@H](NC(=O)[C@H](CCC(=O)O)NC(=O)[C@@H]1CCCN1C(=O)[C@H](CCC(=O)O)NC(=O)[C@@H](N)CS)C(=O)N[C@@H](CCC(N)=O)C(=O)N[C@@H](CC(N)=O)C(=O)N[C@H](C(=O)N[C@H](C(=O)N[C@@H](Cc1ccc(O)cc1)C(=O)N[C@@H](CC(C)C)C(=O)O)[C@@H](C)O)[C@@H](C)O [compound 388] | – | – | 0.06 | – | 3 | – | –
15 | CC(C)C[C@H](NC(=O)[C@H](Cc1ccc(O)cc1)NC(=O)[C@@H](NC(=O)[C@@H](NC(=O)[C@H](CC(N)=O)NC(=O)[C@H](CCC(N)=O)NC(=O)[C@H](C)NC(=O)[C@H](CCC(=O)O)NC(=O)[C@@H]1CCCN1)[C@@H](C)O)[C@@H](C)O)C(=O)N[C@@H](Cc1c[nH]c2ccccc12)C(=O)N[C@@H](Cc1c[nH]c2ccccc12)C(=O)O [compound 393] | – | – | – | 3.09 | 3 | – | –
16 | CC(C)[C@H](NC(=O)[C@H](CCCNC(=N)N)NC(=O)[C@H](Cc1ccccc1)NC(=O)[C@H](CCC(N)=O)NC(=O)CNC(=O)[C@@H](NC(=O)[C@H](C)NC(=O)[C@H](CCC(=O)O)NC(=O)[C@H](CCC(=O)O)NC(=O)[C@@H](N)CC(N)=O)[C@@H](C)O)C(=O)O [compound 395] | – | > 10 | 0.471 | > 10 | 2 | 0.998 | 0.405
17 | CC(C)C[C@H](NC(=O)CNC(=O)[C@H](CO)NC(=O)[C@H](CC(N)=O)NC(=O)[C@H](CCCCN)NC(=O)[C@H](CCC(=O)O)NC(=O)[C@@H](N)[C@@H](C)O)C(=O)N[C@@H](Cc1ccc(O)cc1)C(=O)O [compound 411] | 1.87 | 9.85 | 0.605 | 7.12 | 1 | – | 10.2

Source: patent publication EP1903056A2, “HLA-A1, -A2 -A3, -A24, -B7, and -B44 tumor associated antigen peptides and compositions” (priority 2002, dated 2004)
